Measurements taken from patent US20130344139A1, “METHOD OF REDUCING CONTACT LENS INTOLERANCE WITH NON-DRYING ANTIHISTAMINES” (priority 2005, published 2013).

Tested on: muscarinic receptors (M1-M5)
Experiment: Muscarinic receptor signaling, statements for M1-M5 together
Conditions: stimulation with 500 nM acetylcholine

CN1CCC(=C2c3ccccc3CC(=O)c3sccc32)CC1 [ketotifen]
inhibition of muscarinic receptor signaling (in words): inhibited muscarinic receptor signaling in a dose-dependent manner
